# Yeast mating assay B: variants of the scFv Ab-14

The target is the same throughout: PDVDLGDISGINAS, from the HR2 region of SARS-CoV-2 spike.

Each scFv is VH, a 15-residue (Gly4Ser)3 linker, VL, as in the parent Ab-14, and differs from it in the CDRs of the light chain only.
VH: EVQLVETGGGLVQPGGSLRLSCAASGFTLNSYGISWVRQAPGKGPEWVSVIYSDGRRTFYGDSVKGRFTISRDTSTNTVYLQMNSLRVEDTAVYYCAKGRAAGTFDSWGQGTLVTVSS
VL: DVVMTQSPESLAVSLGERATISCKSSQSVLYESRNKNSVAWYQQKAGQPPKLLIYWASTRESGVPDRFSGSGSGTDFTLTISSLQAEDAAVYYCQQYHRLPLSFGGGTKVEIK

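The parent was found by panning a naive human phage display library on the peptide. This is the validation round: designs drawn from the data on random variants, tested in the same kind of assay. Their group label is 14L_Ctrl (Ctrl: baseline library sampled from a position-specific scoring matrix, with some repeated check sequences). The scFvs were displayed on barcoded MATa yeast, the peptide on MATalpha yeast. The frequency of each diploid, read from paired DNA barcodes, reflects how well the two displayed proteins bind. The ratio of observed to expected reads was calibrated, replicate by replicate, on BCL2-family standards whose Kd was known from biolayer interferometry. The assay was run in six technical replicates.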

Substitutions are numbered in sequence along the VL above, starting at 1 (not Kabat).
Scale: log10 of Kd in nM, estimated from mating counts; low values are strong binders.
Replicates are averaged; those with no signal do not enter the mean.
"nd" means that the variant was in the library but no mating with the target was seen in that replicate; the authors take this as a sign of poor binding, and no number exists.
Background: pairings of all light chain designs with three empty control strains gave a value in 4% of cases (median 2.64, 5th percentile 1.59). Values in that range, when seen in few replicates, are hard to tell from nonspecific mating. The control count says in how many pairings with the empty strains this scFv gave a signal, with their mean in brackets.
The range of this assay differs from that of the first round, and the authors advise against merging the two.
Some sequences occur more than once in the pool; their replicates are listed entry by entry, parted by semicolons.
In the paper, a design with two or fewer of six values counts as a poor binder.

| changes | log10 Kd (nM) by replicate | log10 Kd (nM), mean | empty controls |
|---|---|---|---|
| S25V+T59E+S103I | 0.72 / 0.57 / 0.60 / 0.79 / 0.80 / 0.84 | 0.72 | 1/18 (3.92) |
| L30S+W56G | 0.59 / 0.49 / 0.38 / 0.44 / 0.32 / 0.38 | 0.43 | 1/18 (2.27) |
| S25F+N35D+Q95D | nd / nd / nd / nd / nd / nd; 1.18 / nd / nd / nd / 2.15 / nd; 3.45 / 2.28 / 2.34 / 2.64 / 1.90 / 2.31; nd / nd / nd / nd / nd / nd; nd / nd / nd / nd / nd / nd | 2.28 | 1/90 (2.21) |
| V29E+Y31A+S33H+E61Q | nd / 2.42 / 1.64 / 2.64 / 1.80 / 1.71 | 2.04 | 0/18 |
| K36E+S58K+H98R+S103I | nd / nd / 1.29 / 1.11 / nd / nd | 1.20 | 0/18 |
| S25C+K36V+L100F | 2.50 / nd / nd / 1.39 / 1.88 / nd | 1.92 | 2/18 (1.78) |
| S25I+Q27W+Y97S+L100N | nd / nd / nd / nd / nd / nd | nd | 1/18 (1.30) |
| L30G+S62Y+L102C | nd / nd / nd / nd / nd / nd | nd | 0/18 |
| K24G+S26M+S33M+W56R | nd / nd / 1.35 / nd / nd / nd | 1.35 | 1/18 (2.00) |
| S25N+L30V+S33D+K36N+W56D+H98S+S103K | 0.06 / 0.55 / 0.23 / 0.03 / 0.36 / 0.72 | 0.32 | 0/18 |
| Q27D+T59C | 1.64 / 2.45 / 2.44 / 1.52 / 2.11 / 3.04 | 2.20 | 1/18 (3.12) |
| S25Y+Y31G+N35Y+H98R | nd / 3.01 / nd / 2.19 / 1.96 / nd | 2.39 | 1/18 (1.48) |
| S26A+Q27E+L30V+K36L | 2.18 / nd / 2.75 / nd / nd / nd | 2.46 | 1/18 (1.34) |
| N37Y+S58Q | nd / 3.60 / 2.46 / 1.33 / 3.07 / 2.25 | 2.54 | 1/18 (2.83) |
| Q27D+L30E+Y97T | nd / nd / nd / nd / nd / nd | nd | 0/18 |
| R34S+K36G | nd / 1.86 / 0.71 / nd / 2.23 / nd | 1.60 | 0/18 |
| L30C+W56S | 0.89 / 0.89 / 0.75 / 1.62 / 1.38 / 1.15 | 1.11 | 0/18 |
| W56D+S103F | 0.29 / 0.63 / 0.62 / 0.33 / 0.22 / 0.86 | 0.49 | 0/18 |
| S25L+A57D | 0.91 / 0.98 / 0.82 / 0.63 / 0.90 / 1.73 | 0.99 | 1/18 (2.43) |
| Q27S+Q96T | nd / nd / 1.76 / nd / nd / nd | 1.76 | 1/18 (1.58) |
| K24H+S25D+R34E+V39L+E61R | nd / nd / nd / nd / nd / 1.35 | 1.35 | 0/18 |
| N37H+Q96D | 0.93 / 1.00 / 0.57 / 1.17 / 0.78 / 0.83 | 0.88 | 1/18 (2.15) |
| S25C+Y31E | 1.10 / 0.84 / 0.85 / 0.79 / 0.97 / 1.08 | 0.94 | 2/18 (3.26) |
| S25F+Y31S+E32Y | 1.31 / 1.05 / 1.28 / 0.67 / 1.55 / 0.98 | 1.14 | 2/18 (3.27) |
| S26E+V29Y+L30Y+Y31G+W56A+H98A | -0.14 / -0.15 / -0.25 / -0.49 / -0.42 / -0.25 | -0.28 | 0/18 |
| S25L+Q27S | 1.43 / 1.63 / 1.63 / 2.27 / 1.80 / 1.30 | 1.68 | 0/18 |
| S25E+W56S+H98N | 0.83 / 0.53 / 1.77 / 0.21 / 0.55 / 0.66 | 0.76 | 0/18 |
| Y31G+R34F+K36L+W56D+S58T+T59I | 0.49 / 0.11 / 0.24 / -0.20 / 0.37 / 0.51 | 0.25 | 0/18 |
| Y31V+T59H+H98V | 1.38 / 2.62 / nd / 2.33 / 1.36 / nd | 1.92 | 1/18 (2.34) |
| S25A+S26L+N37I | nd / nd / 0.74 / -0.45 / 0.58 / nd | 0.29 | 0/18 |
| K36S+R60G | nd / nd / nd / nd / nd / nd | nd | 0/18 |
| S25F+S26N+V29L+W56N+S58D | -0.39 / -0.15 / -0.39 / -0.45 / -0.20 / 0.19 | -0.23 | 0/18 |
| Q27I+K36E | nd / nd / nd / nd / nd / 3.61 | 3.61 | 0/18 |
| Y31D+S62D+P101G | 1.31 / 0.89 / 1.28 / 0.91 / 1.24 / 1.53 | 1.19 | 1/18 (2.11) |
| K36H+A57G | 1.26 / nd / 1.75 / 1.24 / 3.23 / 2.48 | 1.99 | 0/18 |
| L30F+W56S+S62R | 1.62 / 1.15 / 1.10 / 1.20 / 1.55 / 1.17 | 1.30 | 3/18 (3.72) |
| V29N+R34A+N35K+S38N+R99G | nd / nd / nd / nd / 3.89 / 3.16 | 3.53 | 0/18 |
| V29E+R34T | 1.48 / 1.10 / 0.91 / 0.67 / 1.06 / 0.82 | 1.01 | 2/18 (2.52) |
| K36C+T59V+Y97L+R99Q+L100D | nd / nd / nd / nd / nd / nd | nd | 1/18 (2.67) |
| R34V+S62E+Q95Y | nd / nd / nd / nd / nd / nd | nd | 0/18 |
| N37P+W56E | 0.50 / 0.58 / 0.70 / 0.36 / 0.54 / 0.75 | 0.57 | 0/18 |
| V29Y+Y31Q | nd / 2.25 / 1.41 / 1.42 / nd / nd | 1.69 | 2/18 (2.42) |
| S26W+T59A | nd / nd / nd / nd / nd / nd | nd | 0/18 |
| S25V+R99Q+L100D | 2.21 / nd / 2.36 / nd / nd / nd | 2.29 | 0/18 |
| K24R+R34E+E61A+H98Q | 0.71 / 1.13 / 0.91 / 0.80 / 0.69 / 1.04 | 0.88 | 1/18 (2.63) |
| N35P | nd / nd / nd / nd / nd / nd | nd | 0/18 |

The first 6 entries again:

{"changes": "S25V+T59E+S103I", "log10 Kd (nM) by replicate": "0.72 / 0.57 / 0.60 / 0.79 / 0.80 / 0.84", "log10 Kd (nM), mean": "0.72", "empty controls": "1/18 (3.92)"}
{"changes": "L30S+W56G", "log10 Kd (nM) by replicate": "0.59 / 0.49 / 0.38 / 0.44 / 0.32 / 0.38", "log10 Kd (nM), mean": "0.43", "empty controls": "1/18 (2.27)"}
{"changes": "S25F+N35D+Q95D", "log10 Kd (nM) by replicate": "nd / nd / nd / nd / nd / nd; 1.18 / nd / nd / nd / 2.15 / nd; 3.45 / 2.28 / 2.34 / 2.64 / 1.90 / 2.31; nd / nd / nd / nd / nd / nd; nd / nd / nd / nd / nd / nd", "log10 Kd (nM), mean": "2.28", "empty controls": "1/90 (2.21)"}
{"changes": "V29E+Y31A+S33H+E61Q", "log10 Kd (nM) by replicate": "nd / 2.42 / 1.64 / 2.64 / 1.80 / 1.71", "log10 Kd (nM), mean": "2.04", "empty controls": "0/18"}
{"changes": "K36E+S58K+H98R+S103I", "log10 Kd (nM) by replicate": "nd / nd / 1.29 / 1.11 / nd / nd", "log10 Kd (nM), mean": "1.20", "empty controls": "0/18"}
{"changes": "S25C+K36V+L100F", "log10 Kd (nM) by replicate": "2.50 / nd / nd / 1.39 / 1.88 / nd", "log10 Kd (nM), mean": "1.92", "empty controls": "2/18 (1.78)"}

Reference: Li et al. 2023, doi:10.1038/s41467-023-39022-2. File: FLAb, binding data.